From the NIST ThermoML archive (doi:10.1021/acs.jced.6b00332)

Test: mn = molality of the nth substance listed, in mol/kg
Conditions: 100 kPa, Liquid, m1 = 0.01; for speed of sound: Frequency=3 MHz, Sing-around technique in a fixed-path interferometer; for mass density: Vibrating tube method

CCC[N+](CCC)(CCC)CCC.[I-] [tetrapropylammonium iodide] + O
Conditions | mass density [kg/m3] | speed of sound [m/s]
293.15 K | 998.62 ± 0.3 | 1484.5 ± 1.2
298.15 K | 997.49 ± 0.3 | 1498.5 ± 1.2
303.15 K | 996 ± 0.3 | 1510.9 ± 1.2
308.15 K | 994.41 ± 0.3 | 1521.4 ± 1.2
313.15 K | 992.61 ± 0.3 | 1530.4 ± 1.2
318.15 K | 990.53 ± 0.3 | 1538 ± 1.2

± gives the expanded uncertainty stated by the source.
